Experimental data as given in publication PMC6474356.

Target: TR construct of eukaryotic elongation factor 2 kinase (eEF-2K) (UniProt O00418)
Experiment: native MS

stoichiometry N: 1
Substance: Calmodulin (Ca2+-CaM) (from UniProt P0DP23 2-149) (natural protein)
